Data taken from patent US9278134B2, “Dual functioning ionic liquids and salts thereof” (priority 2008, dated 2016).

Assay: Thermal decomposition onset (T5% onset) by TGA
Settings: not given

| Substance | T5% onset [°C] |
| --- | --- |
| Cetylpyridinium Salicylate-clofibrate [Example 22] | 197 |
| Cetylpyridinium Salicylate-ibuprofenate [CetPySalIbuH] | 173 |
| Tetrabutylphosphonium Ibuprofenate-niacin [P(Bu)4[IbuNia]H] | 201 |
| Tetrabutylphosphonium Salicylate [P(Bu)4:Sal 1:1] | 312 |
| Tetrabutylphosphonium Salicylate-camphorsulfonic Acid [Example 15] | 203 |
| Tetrabutylphosphonium Salicylate-cinnamic Acid [Example 17] | 191 |
| Tetrabutylphosphonium Salicylate-ibuprofenic Acid [Example 14] | 181 |
| Tetrabutylphosphonium Salicylate-lactic Acid [Example 16] | 178 |

Same assay, conditions: TGA/DSC, 25° C. to 600° C. with 5° C./min under nitrogen; choline salicylate-salicylic acid co-ionic liquids

| Substance | T5% onset [°C] |
| --- | --- |
| Choline Salicylate-salicylic Acid [Cho:Sal 1:2] | 173 |

Same assay, conditions: TGA/DSC, 25° C. to 600° C. with 5° C./min under nitrogen; tetrabutylphosphonium ibuprofenate-ibuprofenic co-ionic liquids

| Substance | T5% onset [°C] |
| --- | --- |
| Tetrabutylphosphonium Ibuprofenate-ibuprofenic Acid [P(Bu)4Ibu 1:2] | 264 |
| Tetrabutylphosphonium Ibuprofenate-ibuprofenic Acid [P(Bu)4Ibu 1:3] | 189 |

Same assay, conditions: TGA/DSC, 25° C. to 600° C. with 5° C./min under nitrogen; tetrabutylphosphonium salicylate-salicylic acid co-ionic liquids

| Substance | T5% onset [°C] |
| --- | --- |
| Tetrabutylphosphonium Salicylate [P(Bu)4:Sal 1:1] | 312 |
| Tetrabutylphosphonium Salicylate-Salicylic Acid [P(Bu)4:Sal 1:1.1] | 297 |
| Tetrabutylphosphonium Salicylate-Salicylic Acid [P(Bu)4:Sal 1:1.2] | 211 |
| Tetrabutylphosphonium Salicylate-Salicylic Acid [P(Bu)4:Sal 1:1.3] | 207 |
| Tetrabutylphosphonium Salicylate-Salicylic Acid [P(Bu)4:Sal 1:1.4] | 209 |
| Tetrabutylphosphonium Salicylate-Salicylic Acid [P(Bu)4:Sal 1:1.5] | 206 |
| Tetrabutylphosphonium Salicylate-Salicylic Acid [P(Bu)4:Sal 1:1.6] | 200 |
| Tetrabutylphosphonium Salicylate-Salicylic Acid [P(Bu)4:Sal 1:1.7] | 194 |
| Tetrabutylphosphonium Salicylate-Salicylic Acid [P(Bu)4:Sal 1:1.8] | 198 |
| Tetrabutylphosphonium Salicylate-Salicylic Acid [P(Bu)4:Sal 1:1.9] | 198 |
| Tetrabutylphosphonium Salicylate-Salicylic Acid [P(Bu)4:Sal 1:2.4] | 184 |
| Tetrabutylphosphonium Salicylate-Salicylic Acid [P(Bu)4:Sal 1:2.7] | 173 |
| Tetrabutylphosphonium Salicylate-Salicylic Acid [P(Bu)4:Sal 1:2.8] | 169 |
| Tetrabutylphosphonium Salicylate-Salicylic Acid [P(Bu)4:Sal 1:2] | 192 |
| Tetrabutylphosphonium Salicylate-Salicylic Acid [P(Bu)4:Sal 1:3.0] | 164 |
| Tetrabutylphosphonium Salicylate-Salicylic Acid [P(Bu)4:Sal 1:3.7] | 150 |
